Test results from publication PMC4152863 (Regulatory peptides, 2013).

Protein sequences, listed by entry. Tags and fused reporters are not part of them.
UniProt P25095, whole entry: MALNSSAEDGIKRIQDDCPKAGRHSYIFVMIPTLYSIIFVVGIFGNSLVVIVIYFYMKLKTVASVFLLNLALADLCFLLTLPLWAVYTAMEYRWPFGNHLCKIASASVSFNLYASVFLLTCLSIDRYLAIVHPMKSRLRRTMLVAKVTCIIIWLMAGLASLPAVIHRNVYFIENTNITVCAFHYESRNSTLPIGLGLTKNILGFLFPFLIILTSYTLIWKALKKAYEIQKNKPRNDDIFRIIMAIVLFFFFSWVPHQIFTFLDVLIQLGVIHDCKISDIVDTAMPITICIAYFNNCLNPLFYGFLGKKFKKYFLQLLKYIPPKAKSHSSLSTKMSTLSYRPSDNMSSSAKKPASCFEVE

Target: liver AT1 receptors (Rattus norvegicus, UniProt P25095)
Format: binding
Parameters: Kd of 125I-SI Ang II binding: unit not given beside the values

## 125I-Sarcosine1, Isoleucine8 angiotensin II [125I-SI Ang II]
  Bmax of 125I-SI Ang II binding: 23.3±0.89
  Kd of 125I-SI Ang II binding: 3.57±0.20
